Values quoted from earlier work as cited in patent publication US6197788A, “(-)-mefloquine to block puringergic receptors and to treat movement or neurodegenerative disorders” (Vernalis Research Limited, priority 1997, dated 2001).

Test system: striatal acetylcholine
Conditions: cited from earlier work

SMILES: CCCN1CCC[C@@H]2Cc3n[nH]cc3C[C@H]21 [quinpirole]
- in vivo release of striatal acetylcholine: attenuate
- ex vivo striatum acetylcholine content (in vivo): increase
